Laboratory results: patent publication US20260053861A1, “CELL COMPOSITIONS AND METHODS OF USING THE SAME” (THE REGENTS OF THE UNIVERSITY OF CALIFORNIA, priority 2022, published 2026)
Like-named read-outs stand apart in the source and are kept apart here.

Tested on: hPSC-SCs
[1] = HTS viability of hPSC-SCs in the presence of 30 mM glucose, Prestwick library, Table S4

Molecule | z.score.t | z.score.t [1]
CCCCc1oc2ccccc2c1C(=O)c1cc(Br)c(O)c(Br)c1 [Benzdromarone] | −1.459 | 
CC1CCc2cc(F)cc3c(=O)c(C(=O)O)cn1c23 (centres unmarked) [Flumequine] |  | −1.461
CC(=O)O[C@]1(C(C)=O)CC[C@H]2[C@@H]3C=C(C)C4=CC(=O)CC[C@]4(C)[C@H]3CC[C@@]21C [Megestrol acetate] |  | −1.465
Pirlindole mesylate |  | −0.3313
Thiethylperazine malate |  | −1.464
